Data on two compounds can be found in patent US9353089B2, “Compositions and methods for the treatment of malaria” (Saint Louis University, priority 2013, dated 2016).

Sequences of proteins named here, by UniProt entry; tags and fusion partners are left off. Residues count along the entry.
UniProt P56817, 46-501 limits assumed: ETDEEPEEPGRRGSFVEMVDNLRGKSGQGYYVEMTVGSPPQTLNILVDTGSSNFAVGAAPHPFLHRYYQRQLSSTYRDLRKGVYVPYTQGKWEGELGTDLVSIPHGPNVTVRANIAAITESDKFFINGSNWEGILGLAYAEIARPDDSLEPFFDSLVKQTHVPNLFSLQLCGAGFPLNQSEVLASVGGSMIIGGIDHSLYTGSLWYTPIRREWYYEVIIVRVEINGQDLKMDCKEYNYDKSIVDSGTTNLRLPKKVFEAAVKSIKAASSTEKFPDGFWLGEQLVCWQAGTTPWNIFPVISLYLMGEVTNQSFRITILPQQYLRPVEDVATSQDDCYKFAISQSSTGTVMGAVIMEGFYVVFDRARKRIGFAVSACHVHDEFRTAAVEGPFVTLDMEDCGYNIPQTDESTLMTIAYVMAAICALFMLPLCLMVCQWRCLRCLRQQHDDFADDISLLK

In assay [1] the test system is recombinant human BACE1. Kind of assay: β-Secretase (BACE1) enzyme inhibition FRET assay. Format: biochemical. How it is done: (§1) The enzymatic inhibition activity assays were determined using the fluorescence resonance energy transfer (FRET) assay. The assays were performed in a 384-well plate format. […] CatD and CatE were activated by incubation in assay buffer (0.1 M NaOAc, 0.2 M NaCl, pH 3.5) at room temperature for 30 min. Subsequently, the rhBACE-1 substrate (R&D Systems, catalog# ES004), the Cathepsin D and Cathepsin E substrate (R&D Systems, Catalog # ES001) were added accordingly to final concentration 20 μM to initiate the reaction. After 60 min incubation at room temperature, the time-resolved fluorescence at Ex/Em=360 nm/460 nm was measured on an EnVision multilabel plate reader (Perkin-Elmer). The analytical software, GraphPad Prism 5.0 (GraphPad Software, Inc., USA) was used to generate IC50 values via non-linear regression analysis, which are reported in Tables 8-13 below as BACE1 IC50 values.

Assay [2] has as its target recombinant human BACE1 (Homo sapiens, UniProt P56817). Description: β-Secretase (BACE1) enzyme inhibition FRET assay. Particulars: Table 12. Format: biochemical. How it is done:
as §1

For orientation: IC50 means the concentration that gives 50% inhibition. `COc1cccc(-c2cccc(C3(c4ccccc4)NC(=N)N(C)C3=O)c2)c1` (stereo not shown) [Example 327, 2-imino-5-[3-(3-methoxyphenyl)phenyl]-3-methyl-5-phenyl-imidazolidin-4-one]: the “BACE1/PM2 Ratio” value in the assay on recombinant human BACE1 [1] is 1.6. Further, the IC50 at recombinant human BACE1 [2] was found to be 0.392 µM.

Take `COc1cccc(-c2cccc(C3(C4CC4)NC(=N)N(C)C3=O)c2)c1` (stereo not shown) [Example 330, 5-cyclopropyl-2-imino-5-[3-(3-methoxyphenyl)-phenyl]-3-methyl-imidazolidin-4-one]: in the assay with recombinant human BACE1 [1], the “BACE1/PM2 Ratio” value turned out to be 0.370. Besides, the IC50 at recombinant human BACE1 [2] turned out to be 0.278 µM.
